Antibody variant affinities, Ab-95 light chain, assay 2

Source: Engelhart et al. 2022 (doi:10.1038/s41597-022-01779-4), MIT Lincoln Laboratory and A-Alpha Bio; data file from the FLAb repository.

The target is the same throughout: PDVDLGDISGINAS, from the HR2 region of SARS-CoV-2 spike.

Ab-95 is the parent antibody, in scFv form: VH, then a 15-residue (Gly4Ser)3 linker, then VL. The heavy chain is unchanged in all variants.
VH: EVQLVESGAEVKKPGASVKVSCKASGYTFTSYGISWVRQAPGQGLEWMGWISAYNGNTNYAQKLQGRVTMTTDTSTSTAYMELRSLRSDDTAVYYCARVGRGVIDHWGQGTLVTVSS
VL: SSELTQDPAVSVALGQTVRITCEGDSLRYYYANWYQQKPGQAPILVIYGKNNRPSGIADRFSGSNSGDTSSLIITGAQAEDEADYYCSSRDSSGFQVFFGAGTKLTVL

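Phage display of a naive human antibody library on the peptide gave the parent. The library (AAYL52) carries one to three amino acid substitutions per variant, with no insertions or deletions. The scFvs were displayed on barcoded MATa yeast, the peptide on MATalpha yeast. The frequency of each diploid, read from paired DNA barcodes, reflects how well the two displayed proteins bind. Scores were corrected for input abundance and mapped to Kd with protein pairs of known affinity run in the same pool. The assay was run in three technical replicates.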

Substitutions are numbered in sequence along the VL above, starting at 1 (not Kabat).
The read-out is the apparent dissociation constant on a log10 scale (nM): the lower, the stronger.
"n.d." means that the variant was in the library but no mating with the target was seen in that replicate; the authors take this as a sign of poor binding, and no number exists.

| # | changes | log10 Kd, replicates |
|---|---|---|
| 1 | K50M/F95Y/Q96T | 2.19 2.74 2.70 |
| 2 | G94E/F95N/Q96A | 3.17 n.d. 3.86 |
| 3 | S88R/S92T/Q96E | 3.44 3.50 n.d. |
| 4 | G24L/S55R/F95A | 4.67 n.d. 3.27 |
| 5 | N52T/R53Y/S93W | n.d. n.d. n.d. |
| 6 | E23P/G49S/S93F | 3.53 3.28 3.84 |
| 7 | S26V/Y30C | 2.58 2.10 2.18 |
| 8 | Y29C/S93P/F98C | n.d. 5.99 n.d. |
| 9 | K50P/S89I | 2.40 2.85 3.03 |
| 10 | E23W/G49Q/R90W | 4.34 5.52 3.38 |
| 11 | K50I/S93E | 3.24 2.71 2.21 |
| 12 | Y29S/A32Y/S93K | 3.41 3.12 n.d. |
| 13 | Y29K/K50Y/S55N | 2.85 2.53 2.57 |
| 14 | A32D/F98C | 3.55 n.d. n.d. |
| 15 | S26K/Y29K/N33H | n.d. n.d. n.d. |
| 16 | R53T/P54D/S92Y | 3.91 n.d. 4.13 |
| 17 | R28T/S89G/D91S | 2.53 2.68 2.13 |
| 18 | D25K/G49R/N51K | 3.86 5.58 4.28 |
| 19 | Y30S/A32K/N52V | 3.06 3.06 2.68 |
| 20 | R28V/D91C/V97S | n.d. 4.24 n.d. |
| 21 | L27R/S88T | 3.26 n.d. 2.56 |
| 22 | Y31F/N33I/F98D | n.d. n.d. n.d. |
| 23 | R28C/P54V | 3.13 3.97 3.39 |
| 24 | R28V/P54Q/Q96H | 3.40 n.d. n.d. |
| 25 | N52M/R53V | 2.64 2.11 2.01 |
| 26 | R53V/V97H | 4.93 n.d. n.d. |
| 27 | D25C/N52C/R53T | n.d. 3.05 3.91 |
| 28 | N33Q/D91H/V97E | n.d. 3.91 n.d. |
| 29 | D25K/S89L/S92C | 3.50 3.52 n.d. |
| 30 | S26W/R53Q/Q96S | n.d. 4.14 4.19 |
| 31 | R28H/N51P/F98N | n.d. 5.89 n.d. |
| 32 | G49R/N52P/S92H | 3.91 n.d. n.d. |
| 33 | D25Y/D91P/G94P | 4.55 n.d. 4.13 |
| 34 | N33K/S89V/F98L | n.d. 3.14 4.42 |
| 35 | L27W/D91E/V97M | 3.39 n.d. 4.30 |
| 36 | R53N/S88C/R90W | 3.54 3.69 3.83 |
| 37 | E23L/S88T/F95N | 4.24 4.73 n.d. |
| 38 | E23V/D25A/Y31T | 2.32 2.55 2.60 |
| 39 | S26Y/G49M/R53H | 4.26 5.33 n.d. |
| 40 | K50N/Q96S/F98Q | 3.60 3.15 3.73 |

A selection of 5 entries from above:

{"changes": "D25K/G49R/N51K", "log10 Kd, replicates": "3.86 5.58 4.28"}
{"changes": "E23L/S88T/F95N", "log10 Kd, replicates": "4.24 4.73 n.d."}
{"changes": "E23W/G49Q/R90W", "log10 Kd, replicates": "4.34 5.52 3.38"}
{"changes": "R53V/V97H", "log10 Kd, replicates": "4.93 n.d. n.d."}
{"changes": "D25C/N52C/R53T", "log10 Kd, replicates": "n.d. 3.05 3.91"}

Nonspecific signal, from three strains lacking the peptide, appeared in 28% of pairings of library AAYL52, centred on 3.91 (5% of these signals below 2.90); values are not corrected for it.